## AlphaSeq binding of Ab-14 light chain variants to a spike HR2 peptide

All variants were tested on one target, the spike HR2 peptide PDVDLGDISGINAS (SARS-CoV-2).

The variants keep the heavy chain, the linker and the frameworks of Ab-14 (scFv order VH, three GGGGS repeats, VL).
VH: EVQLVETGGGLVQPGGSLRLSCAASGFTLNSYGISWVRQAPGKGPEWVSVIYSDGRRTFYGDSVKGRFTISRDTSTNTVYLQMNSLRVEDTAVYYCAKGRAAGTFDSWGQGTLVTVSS
VL: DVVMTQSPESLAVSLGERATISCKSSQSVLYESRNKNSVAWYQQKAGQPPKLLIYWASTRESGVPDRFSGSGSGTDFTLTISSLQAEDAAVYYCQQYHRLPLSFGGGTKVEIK

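The starting antibody came from a phage panning campaign against this peptide. The library (AAYL50) carries one to three amino acid substitutions per variant, with no insertions or deletions. The assay is AlphaSeq: two haploid yeast populations carry antibody and antigen on their surface. The frequency of each diploid, read from paired DNA barcodes, reflects how well the two displayed proteins bind. A regression on co-assayed BCL2-family reference pairs converts the normalised counts of each replicate to an apparent Kd. The assay was run in three technical replicates.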

Each variant is given by its three light chain CDRs, as the data file delimits them; those of the parent are KSSQSVLYESRNKNSVA, WASTRES, QQYHRLPLS. Every variant below is changed at E32 of the VL (sequential numbering). Each Kd is an estimate from the mating assay, the geometric mean of the replicates in which the pair was seen; lower is stronger. "no signal" means that the variant was in the library but no mating with the target was seen in any replicate; the authors take this as a sign of poor binding, and no number exists. In this assay the parent's reference entry averaged 4.4 nM; its copy inside this library read 48 nM. Empty control strains, which show no peptide, gave a signal in 18% of pairings with library AAYL50; the median was 15 µM and 95% of these signals were weaker than 970 nM. No background was subtracted.

The variant KSSVSVLLHSRNKNSVA, WASTRES, QQYHRLPLS showed 13 nM (3 of 3 replicates).
The variant KSSQSVLYCSRNKNSVA, WASTRES, QQYMRLPLS showed 400 nM (2 of 3 replicates).
The variant KSSQMVLYHSRNKNSVA, WASTREP, QQYHRLPLS showed 240 nM (3 of 3 replicates).
The variant KSSQSVLYTSRNKNSVA, WASTRES, QQYHRLPLC showed 34 nM (3 of 3 replicates).
The variant KSSQSVLYFRRNKNSVA, WASTRES, QQYHRLPLS showed 22 µM (3 of 3 replicates).
The variant SSSQSHLYSSRNKNSVA, WASTRES, QQYHRLPLS showed 50 nM (3 of 3 replicates).
The variant KSSQSVLMFSRNKNSVA, WASTRAS, QQYHRLPLS showed 130 nM (3 of 3 replicates).
The variant KSSQSVLYRSRNANSTA, WASTRES, QQYHRLPLS showed no signal (0 of 3 replicates).
The variant KSSQSVLYSSRNKNSVA, IASTRES, QNYHRLPLS showed 37 µM (1 of 3 replicates).
The variant KSSQSVLYCSRNKNSVA, WASTREC, QQYHRMPLS showed 5.4 µM (2 of 3 replicates).
The variant KSSQSVLYRSRNKNSVA, WASHRES, QQYHRLPLS showed 430 nM (2 of 3 replicates).
The variant KSSQSVLYYSLNKGSVA, WASTRES, QQYHRLPLS showed no signal (0 of 3 replicates).
The variant KSSQSVLYPSRNKNSVA, YASTMES, QQYHRLPLS showed 820 nM (3 of 3 replicates).
The variant KSSQEVLYDSRNKNSVA, WASTRES, KQYHRLPLS showed 100 µM (2 of 3 replicates).
The variant KSSQSVLYCSNNKNSVA, WASTRFS, QQYHRLPLS showed 16 µM (2 of 3 replicates).
The variant KSSQSVLYMSRNKNSVA, WYSTRES, QQYHRLPLS showed no signal (0 of 3 replicates).
The variant KSSQSVLYMSRNKNSRA, WASTRES, QQYHRLPLS showed no signal (0 of 3 replicates).
The variant KSSQSVLYMSRNKNSLA, DASTRES, QQYHRLPLS showed 820 pM (3 of 3 replicates).
The variant KSSLSVLYVSRNKNSGA, WASTRES, QQYHRLPLS showed 15 µM (2 of 3 replicates).
The variant KSSQSYLYYSRNKNSVA, WASTRES, QQYHRLPLS showed no signal (0 of 3 replicates).
The variant KSSQSVLYRSRNKNSVH, WASTQES, QQYHRLPLS showed 69 µM (1 of 3 replicates).
The variant KSAQSVLYGSRNKNSVA, WASTRPS, QQYHRLPLS showed 66 nM (3 of 3 replicates).
The variant KSSQSVLYVSRYKNSVA, WASTRES, YQYHRLPLS showed 3.2 µM (2 of 3 replicates).
The variant KSSQSVLYQSRNKNSVA, WASTRES, QQYHRLPLS showed 15 nM (3 of 3 replicates).
The variant KSSQSVLYMSRNNNSVA, WASTRES, QQYHRLTLS showed no signal (0 of 3 replicates).
The variant KSSQSVLYWSRRKNSVA, WASTRES, QQYHRLGLS showed 540 nM (3 of 3 replicates).
The variant KPSTSVLYHSRNKNSVA, WASTRES, QQYHRLPLS showed 620 nM (3 of 3 replicates).
The variant KSSQSVLYMSRNKNGVA, WASTREM, QQYHRLPLS showed no signal (0 of 3 replicates).
The variant KSSQEVLYFSRNKNSVA, WASTCES, QQYHRLPLS showed no signal (0 of 3 replicates).
The variant KSSQSVLYDNRNKNSVA, WASTRES, QQYHRLPYS showed 2.6 µM (1 of 3 replicates).
The variant KSRQSVLYFSRNKNSVA, WASTRES, QVYHRLPLS showed 1.8 µM (2 of 3 replicates).
The variant KSSQSVLYVSRNKNSVA, WASFRES, QQYHRLQLS showed 530 nM (3 of 3 replicates).
The variant KASQSVLYFSRNKNSVA, WASTREQ, QQYHRLPLS showed 13 nM (3 of 3 replicates).
The variant KSSSSVVYSSRNKNSVA, WASTRES, QQYHRLPLS showed 12 nM (3 of 3 replicates).
The variant KSSQSVLYSSRNKNSVA, WASTRIS, QQDHRLPLS showed 640 nM (3 of 3 replicates).
The variant KSSQSVLYYSRNVNSVA, WASTRES, YQYHRLPLS showed 220 nM (3 of 3 replicates).
The variant KNSQSVLYRSRNKNSVA, WASTRES, QNYHRLPLS showed 380 nM (3 of 3 replicates).
The variant KSSQSVLYCSRNKNSVW, WASTRES, QQCHRLPLS showed 66 µM (1 of 3 replicates).
The variant KSSQSVLYQSRNKNSVA, WASTRES, QQEHRLALS showed 59 nM (3 of 3 replicates).
The variant KSLQSVLYLSNNKNSVA, WASTRES, QQYHRLPLS showed no signal (0 of 3 replicates).
The variant KSSQSVLYISRNKNSVA, WAFTRES, QQYHRLPLS showed 74 µM (3 of 3 replicates).
The variant KSSQSVLCISRNKNSVA, WASCRES, QQYHRLPLS showed 35 µM (2 of 3 replicates).
The variant KSSQSVLYFSRNKNSVA, WASTRES, QQYHRAPLD showed no signal (0 of 3 replicates).
The variant KSSQSVLYNSRFKNSVA, WASTRES, VQYHRLPLS showed no signal (0 of 3 replicates).
The variant KSSQSVLYISRNKNSVA, WASTRES, QQEHRLPLS showed 500 nM (3 of 3 replicates).
The variant KSSQSVLYFSRNLNSVA, WASTRES, QQYHRLPLS showed 79 nM (3 of 3 replicates).
The variant KSSQSVLYNSRNKNSVA, WASTRES, QQYHRLAYS showed 70 nM (3 of 3 replicates).

From the AlphaSeq antibody data of Engelhart et al. 2022 (doi:10.1038/s41597-022-01779-4), copy in the FLAb collection.